Molecular target: Protein kinase C beta type (Homo sapiens, UniProt P05771)
Assay: Inhibition of PKCbeta1 by SPA

Amino acid sequences for entries named in this document (tags omitted).
UniProt P05771, whole entry: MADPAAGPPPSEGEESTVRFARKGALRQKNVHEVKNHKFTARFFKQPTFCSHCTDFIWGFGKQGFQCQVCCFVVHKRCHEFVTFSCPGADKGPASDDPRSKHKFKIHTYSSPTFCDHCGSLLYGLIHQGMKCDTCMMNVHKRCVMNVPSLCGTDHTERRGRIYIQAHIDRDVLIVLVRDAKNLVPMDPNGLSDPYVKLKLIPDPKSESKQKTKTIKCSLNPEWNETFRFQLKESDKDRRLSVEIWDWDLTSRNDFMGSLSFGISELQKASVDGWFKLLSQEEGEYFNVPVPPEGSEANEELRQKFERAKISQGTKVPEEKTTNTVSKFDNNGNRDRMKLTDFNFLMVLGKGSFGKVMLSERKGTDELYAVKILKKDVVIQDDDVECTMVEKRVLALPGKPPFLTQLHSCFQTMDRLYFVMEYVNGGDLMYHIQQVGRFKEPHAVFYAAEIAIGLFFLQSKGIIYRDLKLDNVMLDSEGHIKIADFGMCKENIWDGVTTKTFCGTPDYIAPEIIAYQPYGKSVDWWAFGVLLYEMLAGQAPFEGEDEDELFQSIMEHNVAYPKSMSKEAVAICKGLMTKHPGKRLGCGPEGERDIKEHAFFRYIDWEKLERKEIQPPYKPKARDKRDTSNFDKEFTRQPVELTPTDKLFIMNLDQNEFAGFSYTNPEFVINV

- IC50: 2 nM
SMILES: CN1CCN(c2nc(C3=C(c4c[nH]c5ccccc45)C(=O)NC3=O)c3ccccc3n2)CC1 [SOTRASTAURIN]

Reference: ChEMBL document CHEMBL1156112, “Discovery of 3-(1H-indol-3-yl)-4-[2-(4-methylpiperazin-1-yl)quinazolin-4-yl]pyrrole-2,5-dione (AEB071), a potent and selective inhibitor of protein kinase C isotypes” (J Med Chem, 2009)
